The values that follow come from patent US5212286A, “Atrial Natriuretic/vasodilator peptide compounds” (Scios Nova Inc., priority 1986, dated 1993).

Structures are written as SMILES.

One assay deals with isolated rat kidney. Description: Renal function in the isolated perfused rat kidney. The following applies: dose 1 μg; experimental period E; mean of 3-8 experiments.
For assay [1], the system named is precontracted rabbit or rat aortic preparations. The conditions noted are these: for IC50: thoracic aortic segments precontracted with histamine or norepinephrine, read-out: IC50 (concentration producing half-maximal relaxation of the precontracted tissue); for vasorelaxant potency in words: precontracted vascular preparations. On the procedure:
Synthetic ANVP compounds were compared to partially purified (gel filtration step) and purified (HPLC) native ANVP compounds (See FIGS. 3A-D) for their ability to relax histamine-contracted aortic rings. Rings were suspended in 10 ml aerated Kreb's buffer under 1.5 gm passive tension. Rings were precontracted with 5 X 10^-6 M histamine, washed and allowed to return to baseline tension, as described ([…]., supra). Increasing amounts of purified or synthetic ANVP compounds were then added in cumulative fashion. […] The relaxation effects of various ANVP compounds on precontracted rabbit or rat aortic preparations are shown in Table III. | Thoracic aortic segments were precontracted with histamine or | norepinephrine as previously described. Various doses of ANVP compounds | were then added and relaxation of the precontracted state was monitored. | Data are expressed as the concentration of each peptide required to | produce a halfmaximal relaxation of the precontracted tissue (IC50).

Assay [2] relates to ANVP receptor sites on cultured bovine vascular smooth muscle cells. Description: Displacement of specific [125I]rANVP(126-150) binding on cultured smooth muscle cells. The following applies: concentration of half-maximal displacement. An excerpt: Specific and saturable binding is a necessary component of a hormone/receptor interaction.
Various concentrations of the peptides described were examined for […]

Another assay concerns intact rats. Description: Natriuretic and diuretic effects in intact rats (bolus injection). The conditions noted are these: dose 3670 pmol/kg. The class given is in vivo, rat. On the procedure: Synthetic ANVP compounds […] hANVP(127-151) were also found to be natriuretic in the intact rat. These compounds were administered as a bolus injection to Inactin anesthetized rats (100 mg/kg, average weight 399 g) which were maintained on a constant infusion of normal saline at 2.2 ml/hr. […] Data are expressed as mean±SE.

In the case of `CC[C@H](C)[C@@H]1NC(=O)[C@H](CCCNC(=N)N)NC(=O)[C@H](CC(=O)O)NC(=O)[C@H]([C@@H](C)CC)NC(=O)[C@H](CCCNC(=N)N)NC(=O)CNC(=O)CNC(=O)[C@H](Cc2ccccc2)NC(=O)[C@@H](NC(=O)[C@H](CO)NC(=O)[C@H](CO)NC(=O)[C@@H](N)CCCNC(=N)N)CSSC[C@@H](C(=O)N[C@@H](CC(N)=O)C(=O)N[C@@H](CO)C(=O)N[C@@H](Cc2ccccc2)C(=O)N[C@@H](CCCNC(=N)N)C(=O)N[C@@H](Cc2ccc(O)cc2)C(=O)O)NC(=O)CNC(=O)[C@H](CC(C)C)NC(=O)CNC(=O)[C@H](CO)NC(=O)[C@H](CCC(N)=O)NC(=O)[C@@H](C)NC(=O)CNC1=O` [[D-Ala^139]rANVP(126-150), H-Arg-Ser-Ser-Cys-Phe-Gly-Gly-Arg-Met-Asp-Arg-Ile-Gly[D-Ala]-Gln-Ser-Gly-Leu-Gly-Cys-Asn-Ser-Phe-Arg-Tyr-OH], in the assay on isolated rat kidney, the “.V (urine flow rate)” value amounted to 112.5 µL/min, the GFR amounted to 0.59 mL/min and the “UNa.V (urinary sodium excretion rate)” value was 8.14 μEq/min. For the same molecule, in assay [1], the IC50 is 2.7 nM.
As to `CC[C@H](C)[C@@H]1NC(=O)[C@H](CCCNC(=N)N)NC(=O)CNC(=O)CNC(=O)[C@H](Cc2ccccc2)NC(=O)[C@@H](NC(=O)[C@H](CO)NC(=O)[C@H](CO)NC(=O)[C@@H](N)CCCNC(=N)N)CSSC[C@@H](C(=O)N[C@@H](CC(N)=O)C(=O)N[C@@H](CO)C(=O)N[C@@H](Cc2ccccc2)C(=O)N[C@@H](CCCNC(=N)N)C(=O)N[C@@H](Cc2ccc(O)cc2)C(=O)O)NC(=O)CNC(=O)[C@H](CC(C)C)NC(=O)CNC(=O)[C@H](CO)NC(=O)[C@H](CCC(N)=O)NC(=O)[C@H](C)NC(=O)CNC(=O)[C@H]([C@@H](C)CC)NC(=O)[C@@H](CCCNC(=N)N)NC(=O)[C@H](CC(=O)O)NC1=O` [[D-Arg^136]rANVP(126-150), H-Arg-Ser-Ser-Cys-Phe-Gly-Arg-Met-Asp[D-Arg]-Ile-Gly-Ala-Gln-Ser-Gly-Leu-Gly-Cys-Asn-Ser-Phe-Arg-Tyr-OH], in assay [1], the “vasorelaxant potency in words” value is given as “most potent” and the IC50 was determined as 0.64 nM.
Usually Ki stands for a dissociation constant, usually derived from enzyme kinetics or from competition with a known ligand. Higher therefore signals lower affinity. As for `CC[C@H](C)[C@@H]1NC(=O)[C@H](CCCNC(=N)N)NC(=O)[C@H](CC(=O)O)NC(=O)[C@H]([C@@H](C)CC)NC(=O)[C@H](CCCNC(=N)N)NC(=O)CNC(=O)CNC(=O)[C@H](Cc2ccccc2)NC(=O)[C@@H](NC(=O)[C@H](CO)NC(=O)[C@H](CO)NC(=O)[C@@H](N)CCCNC(=N)N)CSSC[C@@H](C(=O)N[C@@H](CC(N)=O)C(=O)N[C@@H](CO)C(=O)N[C@@H](Cc2ccccc2)C(=O)N[C@@H](CCCNC(=N)N)C(=O)N[C@@H](Cc2ccc(O)cc2)C(=O)O)NC(=O)CNC(=O)[C@H](CC(C)C)NC(=O)CNC(=O)[C@H](CO)NC(=O)[C@@H](CCC(N)=O)NC(=O)[C@H](C)NC(=O)CNC1=O` [[D-Gln^140]rANVP(126-150), H-Arg-Ser-Ser-Cys-Phe-Gly-Gly-Arg-Ile-Gly-Ala-[D-Gln]-Ser-Gly-Leu-Gly-Cys-Asn-Ser-Phe-Arg-tyr-OH], in the assay on isolated rat kidney, the “.V (urine flow rate)” value is 183.4 µL/min, the GFR worked out at 1.01 mL/min and the “UNa.V (urinary sodium excretion rate)” value was determined as 14.52 μEq/min. In assay [1], the “vasorelaxant potency in words” value is “most potent” and the IC50 amounted to 1.25 nM. In addition, in assay [2] (Series A smooth muscle cells), the inhibition constant (Ki) is 20 nM.
Turning to `CC[C@H](C)[C@@H]1NC(=O)[C@H](CCCNC(=N)N)NC(=O)[C@H](CC(=O)O)NC(=O)[C@H]([C@@H](C)CC)NC(=O)[C@H](CCCNC(=N)N)NC(=O)CNC(=O)CNC(=O)[C@H](Cc2ccccc2)NC(=O)[C@@H](NC(=O)[C@H](CO)NC(=O)[C@H](CO)NC(=O)[C@@H](N)CCCNC(=N)N)CSSC[C@H](C(=O)N[C@@H](CC(N)=O)C(=O)N[C@@H](CO)C(=O)N[C@@H](Cc2ccccc2)C(=O)N[C@@H](CCCNC(=N)N)C(=O)N[C@@H](Cc2ccc(O)cc2)C(=O)O)NC(=O)CNC(=O)[C@H](CC(C)C)NC(=O)CNC(=O)[C@H](CO)NC(=O)[C@H](CCC(N)=O)NC(=O)[C@H](C)NC(=O)CNC1=O` [[D-Cys^145]rANVP(126-150), H-Arg-Ser-Ser-Cys-Phe-Gly-Gly-Arg-Ile-Asp-Arg-Ile-Gly-Ala-Gln-Ser-Gly-Leu-Gly-[D-Cys]-Asn-Ser-Phe-Arg-Tyr-OH], in the assay with intact rats, the “Peak Na+ Excr.” value was 1.8 ± 0.4 µmol/min and the “Peak Urine Vol.” value came to 27.3 ± 6 µL/min. Further, in assay [1], the IC50 turned out to be 24 nM.
Consider `CC[C@H](C)[C@@H]1NC(=O)[C@H](CCCNC(=N)N)NC(=O)[C@H](CC(=O)O)NC(=O)[C@H]([C@@H](C)CC)NC(=O)[C@H](CCCNC(=N)N)NC(=O)CNC(=O)CNC(=O)[C@H](Cc2ccccc2)NC(=O)[C@H](NC(=O)[C@H](CO)NC(=O)[C@H](CO)NC(=O)[C@@H](N)CCCNC(=N)N)CSSC[C@@H](C(=O)N[C@@H](CC(N)=O)C(=O)N[C@@H](CO)C(=O)N[C@@H](Cc2ccccc2)C(=O)N[C@@H](CCCNC(=N)N)C(=O)N[C@@H](Cc2ccc(O)cc2)C(=O)O)NC(=O)CNC(=O)[C@H](CC(C)C)NC(=O)CNC(=O)[C@H](CO)NC(=O)[C@H](CCC(N)=O)NC(=O)[C@H](C)NC(=O)CNC1=O` [[D-Cys^129]rANVP(126-150)], for which, in assay [1], the IC50 turned out to be 6.1 nM.
For orientation: EC50 means the concentration that produces a half-maximal response. As for `CC[C@H](C)[C@@H]1NC(=O)[C@H](CCCNC(=N)N)NC(=O)[C@H](CC(=O)O)NC(=O)[C@H]([C@@H](C)CC)NC(=O)[C@H](CCCNC(=N)N)NC(=O)CNC(=O)CNC(=O)[C@H](Cc2ccccc2)NC(=O)[C@@H](NC(=O)[C@H](CO)NC(=O)[C@H](CO)NC(=O)[C@@H](N)CCCNC(=N)N)CSSC[C@@H](C(=O)N[C@@H](CC(N)=O)C(=O)N[C@@H](CO)C(=O)N[C@@H](Cc2ccccc2)C(=O)N[C@@H](CCCNC(=N)N)C(=O)N[C@@H](Cc2ccc(O)cc2)C(=O)O)NC(=O)CNC(=O)[C@H](CC(C)C)NC(=O)CNC(=O)[C@H](CO)NC(=O)[C@H](CCC(N)=O)NC(=O)[C@H](C)NC(=O)CNC1=O` [rANVP(126-150)], the EC50 in assay [1] (read-out: EC50 for relaxing vascular smooth muscle (FIG. 12a)) is ~3 nM.
Regarding `CC[C@H](C)[C@@H]1NC(=O)[C@H](CCCNC(=N)N)NC(=O)[C@H](CC(=O)O)NC(=O)[C@H]([C@@H](C)CC)NC(=O)[C@H](CCCNC(=N)N)NC(=O)CNC(=O)CNC(=O)[C@H](Cc2ccccc2)NC(=O)[C@@H](NC(=O)[C@H](CO)NC(=O)[C@H](CO)NC(=O)[C@@H](N)CCCNC(=N)N)CSSC[C@@H](C(=O)N[C@@H](CC(N)=O)C(=O)N[C@@H](CO)C(=O)N[C@@H](Cc2ccccc2)C(=O)N[C@@H](CCCNC(=N)N)C(=O)N[C@@H](Cc2ccc(O)cc2)C(=O)O)NC(=O)CNC(=O)[C@@H](CC(C)C)NC(=O)CNC(=O)[C@H](CO)NC(=O)[C@H](CCC(N)=O)NC(=O)[C@H](C)NC(=O)CNC1=O` [[D-Leu^143]rANVP(126-150), H-Arg-Ser-Ser-Cys-Phe-Gly-Gly-Arg-Met-Asp-Arg-Ile-Gly-Ala-Gln-Ser-Gly-[D-Leu]-Gly-Cys-Asn-Ser-Phe-Arg-Tyr-OH], in the assay with isolated rat kidney, the “.V (urine flow rate)” value came out at 103.0 µL/min, the GFR was determined as 0.53 mL/min and the “UNa.V (urinary sodium excretion rate)” value is 3.52 μEq/min. Besides, the IC50 in assay [1] was determined as 3.6 nM.
Take `CC[C@H](C)[C@@H]1NC(=O)[C@H](CCCNC(=N)N)NC(=O)[C@H](CC(=O)O)NC(=O)[C@H]([C@@H](C)CC)NC(=O)[C@H](CCCNC(=N)N)NC(=O)CNC(=O)CNC(=O)[C@H](Cc2ccccc2)NC(=O)[C@@H](NC(=O)[C@H](CO)NC(=O)[C@H](CO)NC(=O)[C@@H](N)CCCNC(=N)N)CSSC[C@@H](C(=O)N[C@H](CC(N)=O)C(=O)N[C@@H](CO)C(=O)N[C@@H](Cc2ccccc2)C(=O)N[C@@H](CCCNC(=N)N)C(=O)N[C@@H](Cc2ccc(O)cc2)C(=O)O)NC(=O)CNC(=O)[C@H](CC(C)C)NC(=O)CNC(=O)[C@H](CO)NC(=O)[C@H](CCC(N)=O)NC(=O)[C@H](C)NC(=O)CNC1=O` [[D-Asn^146]rANVP(126-150), H-Arg-Ser-Ser-Cys-Phe-Gly-Gly-Arg-Ile-Asp-Arg-Ile-Gly-Ala-gln-Ser-Gly-Leu-Gly-Cys-[D-Asn]-Ser-Phe-Arg-Tyr-OH]: in the assay with intact rats, the “Peak Na+ Excr.” value stood at 1.3 ± 0.5 µmol/min and the “Peak Urine Vol.” value came out at 12.2 ± 1.2 µL/min. For the same molecule, in assay [1], the IC50 came out at 4.4 nM.
`CC[C@H](C)[C@@H]1NC(=O)[C@H](CCCNC(=N)N)NC(=O)[C@H](CC(=O)O)NC(=O)[C@H]([C@@H](C)CC)NC(=O)[C@@H](CCCNC(=N)N)NC(=O)CNC(=O)CNC(=O)[C@H](Cc2ccccc2)NC(=O)[C@@H](NC(=O)[C@H](CO)NC(=O)[C@H](CO)NC(=O)[C@@H](N)CCCNC(=N)N)CSSC[C@@H](C(=O)N[C@@H](CC(N)=O)C(=O)N[C@@H](CO)C(=O)N[C@@H](Cc2ccccc2)C(=O)N[C@@H](CCCNC(=N)N)C(=O)N[C@@H](Cc2ccc(O)cc2)C(=O)O)NC(=O)CNC(=O)[C@H](CC(C)C)NC(=O)CNC(=O)[C@H](CO)NC(=O)[C@H](CCC(N)=O)NC(=O)[C@H](C)NC(=O)CNC1=O` [[D-Arg^133]rANVP(126-150), H-Arg-Ser-Ser-Cys-Phe-Gly-[D-Ala]-Ile-Asp-Arg-Ile-Gly-Ala-Gln-Ser-Gly-Leu-Gly-Cys-Asn-Ser-Phe-Arg-Tyr-OH]: the IC50 in assay [1] turned out to be 13 nM. The Ki in assay [2] (Series B smooth muscle cells) amounted to 4.65 nM.
